Series [1] can be described thus: Solid-state stability study, accelerated conditions (40° C. and 75% relative humidity, 14 days). The format is physicochemical. The conditions noted are these: 40° C./75% RH, 2 weeks, sealed container; for Appearance: 50 mg solid; for XRPD analysis: form change by XRPD. How it is done:
A study was carried out to examine the physical stability of the tetrahydrocannabinolic acid cocrystals with respect to solid form conversion or signs of decomposition over time under both ambient and accelerated conditions.

The nature of series [2]: Solid-state stability study, ambient conditions in clear glass vial for 6 months. The conditions noted are these: for Appearance: 50 mg solid; for XRPD analysis: form change by XRPD. The format is physicochemical.

In patent publication US12702675B2, “Tetrahydrococannabinolic acid cocrystals” (Manoira Corporation, priority 2020, dated 2026) one finds Appearance and XRPD analysis data, which are given here for two substances.

“1:1 tetrahydrocannabinolic acid L-proline cocrystal [1:1 THCA L-PROLINE]”: the Appearance entry in series [1] and in series [2] was “No change” in each case. Further, the XRPD analysis entry in series [1] is “No change”; in series [1] (listed as 1:1 tetrahydrocannabinolic acid L-proline cocrystal), “retained their original crystalline form”; in series [2], “No change”.
Turning to “1:1 tetrahydrocannabinolic acid caffeine cocrystal [1:1 THCA CAFFEINE]”, the Appearance result in series [1] and in series [2] was “No change” in each case. Further, the XRPD analysis entry in series [1] was “No change”; in series [1] (listed as 1:1 tetrahydrocannabinolic acid caffeine cocrystal) it was “retained their original crystalline form”; in series [2], “No change”.
